Test system: splenocytes stimulated with wild-type peptide NY-ESO-1157-165
Test: NY-ESO-1 boost, ex vivo IFN-gamma production by splenocytes (ELISA)
Assay type: in vivo, mice
Settings: 10 μM wild-type peptide, 3 and 6 days
Description: Supernatants were harvested and the concentration of IFN-γ measured by ELISA.

C165V: NY-ESO-1 157-165 analog with V for C at position 165 (SLLMWITQV; UniProt P78358 157-165, looked up, variant C165V) [Peptide C165V, reference compound]
IFN-gamma production upon ex vivo re-stimulation, in words: failed to induce increased capability of T cells to produce IFN-γ

From patent publication US7605227B2, “Melanoma antigen peptide analogues” (MannKind Corporation, priority 2005, dated 2009)
